According to PMC3296737:

Target: 30 S ribosomal subunits depleted of protein S1 (30 S(-S1))
Experiment: in vitro reconstitution of 30 S subunits with ultrafiltration; competition: 30 S(-S1) subunits incubated concomitantly with S1 and S1_(Δ103–181) in equimolar amounts, 37°C, 30 min; 100 kDa MWCO ultrafiltration; SDS-PAGE, Coomassie

- ratio of bound S1 (Δ103–181) to bound S1 in competition: 1
Substance: HIS- and FLAG-tagged protein S1_(Δ103–181), purified (plasmid pProEX-S1ΔD2F) (from UniProt P0AG67 1-557) (natural protein)
